From PubChem BioAssay
Shown are actives, neighbours in structure and some others; about 2.3% of the full set was active somewhere.
MC4R barr agon: MC4R agonists recruiting beta-arrestin, primary screen, cell-based, luminescence, agonist arm of biased-ligand search; Melanocortin receptor 4 (Homo sapiens), P32245; 360,000 compounds, 0.98% hits; U2OS MC4R beta-arrestin complementation; percent of melanotan II response, DMSO zero; activation, % at 8.9 µM;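 active = activation above a per-plate cutoff, the mean activation of sample wells on that plate plus 3 SD, cut at about 8% in these data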
UUG fidelity: alters start codon recognition fidelity in yeast; AID 602363; activity score, % at 18.7 µM; 350,000 tested, 0.13% active; S. cerevisiae UUG-firefly luciferase reporter, luminescence/redox ratio;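 active means replicate mean at a twofold rise or more, about +100% in these data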;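 further: firefly luciferase made from a UUG start codon reports start codon fidelity; reporter light over untreated wells divided by growth signal over untreated wells; some hits fall short of that in this replicate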
MC4R antag cAMP: MC4R antagonists of cAMP signaling, primary screen, cell-based, TR-FRET, antagonist arm of biased-ligand search. inhibition, % at 6.5 µM. 360,000 compounds, 0.48% hits. MC4R-expressing cells, MTII-stimulated cAMP, LANCE TR-FRET;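 active = inhibition above its plate's cutoff, the mean of tested wells on that plate plus 3 SD, cut at about 29% in these data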
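material = U2OS cells stably expressing human melanocortin 4 receptor (MC4R) | also added = Melanotan II challenge | dosing = single nominal compound dose of 6.5 µM | detection = TR-FRET with Eu-cAMP and labeled anti-cAMP, 671 nm | replication = singlicate | timing = compound 30 min, challenge 1 h, detection 1 h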
ASAP1 GAP inh: inhibitors of human ASAP1 ArfGAP activity, primary screen, biochemical, fluorescence polarization | inhibition, % at 16.5 µM | Arf-GAP with SH3 domain, ANK repeat and PH domain-containing protein 1 (Homo sapiens), … | ASAP1-stimulated ARF1 GTP hydrolysis, GDP FP detection | 360,000 compounds, 0.19% hits; in the data active = inhibition above about 25%
CendR NRP1 mod: modulators of CendR peptide binding to NRP-1, primary screen, biochemical, fluorescence polarization, uHTS. Neuropilin-1 (Homo sapiens), O14786. FAM-RPARPAR peptide binding to NRP-1. inhibition, % at 25 µM. 360,000 compounds, 0.85% hits. AID 602438, 2012;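 active = inhibition or corrected inhibition above about 18%, plus a signal ratio from 0.5 to 1.5, limit read from the data, passing the limit was not always enough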
ARFGAP1 inhibitor: inhibitors of rat ARFGAP1 GAP activity, primary screen, biochemical, fluorescence polarization, GDP tracer | Arfgap1-stimulated ARF1 GTP hydrolysis, GDP FP detection | inhibition, % at 16.5 µM | 360,000 compounds, 0.26% hits | AID 651572, 2012;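 active = inhibition above a per-plate limit, mean inhibition of low control wells plus 3 SD, cut at about 25% in these data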
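Material: rat Arfgap1 GAP domain (His6, aa 1-136), purified enzyme. Also added: human ARF1(Δ1-17)-GTP substrate. Compound dosing: 16.5 µM single point, 1.26% DMSO. Timing: enzyme reaction 120 min at 25 °C after 20 min preincubation. Signal: GDP detection by fluorescence polarization. Read-out basis: percent inhibition of GAP-stimulated GDP formation, scaled between DMSO and no-Arfgap1 medians.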
Numbers stand for hits; – = inactive; · = not tested or not shown.

By UniProt entry, the sequences of proteins in these tests, tags left out.
Melanocortin receptor 4 (Homo sapiens), P32245, UniProt P32245, whole entry, looked up: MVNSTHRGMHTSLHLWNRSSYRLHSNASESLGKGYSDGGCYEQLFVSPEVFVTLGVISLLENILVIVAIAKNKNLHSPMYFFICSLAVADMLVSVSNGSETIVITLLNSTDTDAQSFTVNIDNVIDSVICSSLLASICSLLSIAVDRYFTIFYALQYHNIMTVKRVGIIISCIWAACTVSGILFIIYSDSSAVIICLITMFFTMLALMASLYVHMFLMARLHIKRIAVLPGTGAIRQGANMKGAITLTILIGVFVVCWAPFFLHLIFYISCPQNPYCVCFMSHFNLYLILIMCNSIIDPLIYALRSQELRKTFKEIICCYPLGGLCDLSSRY
Neuropilin-1 (Homo sapiens), O14786, UniProt O14786, whole entry, looked up: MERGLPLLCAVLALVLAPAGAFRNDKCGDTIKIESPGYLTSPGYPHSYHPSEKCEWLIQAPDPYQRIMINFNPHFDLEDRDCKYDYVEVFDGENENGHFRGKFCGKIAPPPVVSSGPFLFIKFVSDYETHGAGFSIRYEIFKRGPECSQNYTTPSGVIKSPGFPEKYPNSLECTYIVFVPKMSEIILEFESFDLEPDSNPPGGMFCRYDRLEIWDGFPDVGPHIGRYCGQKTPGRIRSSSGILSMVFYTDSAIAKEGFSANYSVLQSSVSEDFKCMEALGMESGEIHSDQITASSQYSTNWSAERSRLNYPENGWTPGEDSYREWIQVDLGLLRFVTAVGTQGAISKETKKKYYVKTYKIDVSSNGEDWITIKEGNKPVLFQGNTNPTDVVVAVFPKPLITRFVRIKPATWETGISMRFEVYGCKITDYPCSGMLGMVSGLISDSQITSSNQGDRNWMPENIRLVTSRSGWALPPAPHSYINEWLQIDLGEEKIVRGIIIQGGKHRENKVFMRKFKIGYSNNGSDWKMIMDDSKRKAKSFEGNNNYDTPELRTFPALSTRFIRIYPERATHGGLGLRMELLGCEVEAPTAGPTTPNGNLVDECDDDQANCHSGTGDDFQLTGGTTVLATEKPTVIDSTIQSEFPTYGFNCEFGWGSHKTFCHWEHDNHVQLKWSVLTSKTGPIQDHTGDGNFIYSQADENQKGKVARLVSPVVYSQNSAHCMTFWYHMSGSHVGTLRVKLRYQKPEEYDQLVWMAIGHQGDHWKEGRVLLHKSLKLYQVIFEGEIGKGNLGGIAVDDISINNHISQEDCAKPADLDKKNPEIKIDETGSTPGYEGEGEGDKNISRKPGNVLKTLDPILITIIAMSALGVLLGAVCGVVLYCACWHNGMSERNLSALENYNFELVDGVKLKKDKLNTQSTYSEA

SMILES | MC4R barr agon | UUG fidelity | MC4R antag cAMP | ASAP1 GAP inh | CendR NRP1 mod | ARFGAP1 inhibitor
CCOC(=O)C1=C(C)N(CCCC(=O)O)C(=O)NC1c1ccc(OC)cc1 (centres undefined) | – | – | – | – | 26 | –
CC1=C(C(=O)OCc2ccccc2)C(c2ccc([N+](=O)[O-])cc2)NC(=O)N1CCCC(=O)O (centres undefined) | – | – | – | – | 33 | –
O=C1C2C3C=CC(C2C(=O)N1c1cccc(O)c1)C1C2C(=O)N(c4cccc(O)c4)C(=O)C2C31 (centres undefined) | – | – | – | – | – | –
C#Cc1cccc(N2C(=O)C3C4C=CC(C3C2=O)C2C(=O)N(c3cccc(C#C)c3)C(=O)C42)c1 (centres undefined) | – | · | – | – | 25 | –
O=C(Cn1cnc2cc([N+](=O)[O-])ccc2c1=O)NCCc1ccc(Cl)cc1 | – | – | – | – | 20 | –
C[C@@H]1CN([C@@H](C)CO)C(=O)c2cccc(NS(C)(=O)=O)c2O[C@H]1CN(C)Cc1ccc(C(=O)O)cc1 | – | – | – | – | 26 | –
C[C@H](CO)N1C[C@H](C)[C@@H](CN(C)Cc2ccc(C(=O)O)cc2)Oc2c(NC(=O)Cc3ccccc3)cccc2C1=O | – | – | – | – | 30 | –
C[C@H](CO)N1C[C@H](C)[C@H](CN(C)Cc2ccc(C(=O)O)cc2)Oc2c(NS(C)(=O)=O)cccc2C1=O | · | – | · | · | · | ·
Cc1ccc(S(=O)(=O)N(C)C[C@@H]2Oc3c(NC(=O)C4CCOCC4)cccc3C(=O)N([C@@H](C)CO)C[C@H]2C)cc1 | · | – | · | · | · | ·
CCCN(C)C[C@@H]1Oc2cc(-c3cccnc3)ccc2S(=O)(=O)N([C@H](C)CO)C[C@@H]1C | · | – | · | · | · | ·
Oc1ccc(-c2nc3ncccn3c2Nc2ccc3c(c2)OCO3)cc1 | – | – | – | – | 24 | –
O=C(CSc1nnnn1-c1ccc(Cl)cc1)NC(=O)Nc1ccc2c(c1)OCCO2 | 9.3 | – | – | – | – | –
C[C@H]1CN([C@@H](C)CO)C(=O)c2cc(-c3cccc(C#N)c3)cnc2O[C@@H]1CN(C)Cc1ccc(F)cc1 | · | – | · | · | · | ·
CN(Cc1ccccc1)C(=O)[C@@H]1CCCN1C(=O)[C@@H]1CCCN1C(=O)c1cccc(Cl)c1 | · | · | · | – | 22 | –
COc1ccccc1S(=O)(=O)N1CC[C@@H]2[C@H]1c1cc(-c3cccc(C#N)c3)ccc1N(C)[C@H]2CO | · | – | · | · | · | ·
O=S1(=O)CCOC[C@H](Cc2ccccc2)N1Cc1ccc(F)cc1 | – | – | – | – | – | –
CC(C)[C@H]1COCCS(=O)(=O)N1Cc1cccc(Cl)c1 | – | – | – | – | 27 | –
CCC1COCCS(=O)(=O)N1Cc1cccc(Cl)c1 (centres undefined) | – | – | – | – | – | –
O=S1(=O)CCOC[C@H](Cc2ccccc2)N1Cc1ccccc1F | – | – | – | – | 28 | –
O=S1(=O)CCOC[C@H](Cc2ccccc2)N1Cc1cccc(F)c1 | – | – | – | – | 35 | –
O=C(C[C@@H]1C[C@@H]2c3cc(NC(=O)Nc4ccccc4F)ccc3O[C@@H]2[C@@H](CO)O1)NCC1CC1 | · | – | · | · | · | ·
C[C@@H]1CCCCO[C@H](CN(C)S(=O)(=O)c2ccc(Cl)cc2)[C@H](C)CN([C@H](C)CO)C(=O)c2cc(NC(=O)c3ccncc3)ccc2O1 | · | – | · | · | · | ·
CCN(CC)C(=O)Cn1cc(S(=O)(=O)Cc2cccc([N+](=O)[O-])c2)c2ccccc21 | – | – | – | – | 24 | –
C[C@H](CO)N1C[C@H](C)[C@@H](CN(C)Cc2cncnc2)Oc2cc(/C=C/c3ccccc3)ccc2S1(=O)=O | · | – | · | · | · | ·
